Test system: awake mice
Test: Myoclonic event (ME) frequency on EEG in awake mice
Assay type: in vivo, mouse
Settings: cortical KCl (12.5 mM) ± bumetanide

Row | SMILES | ME frequency [ME min^−1]
1 | [Cl-].[K+] [KCl] | 0.78±0.05
2 | CCCCNc1cc(C(=O)O)cc(S(N)(=O)=O)c1Oc1ccccc1 [bumetanide] | 0.13±0.03

— US9616075B2, “Method of treating and preventing brain impairment using Na+-K+-2Cl-cotransporter isoform 1 inhibitors” (University of Rochester, priority 2012, dated 2017)
